Assay results taken from the NIST ThermoML archive (doi:10.1016/j.jct.2009.07.001).
Where “and” joins values, the source holds several entries; their conditions need not be identical. Equal values may be shown once.

Assay: excess molar enthalpy (molar enthalpy of mixing); xn = mol fraction of the nth substance listed
Details: 298.15 K, 101 kPa, Liquid, Calvet calorimetry

CCCCOCCCC [dibutyl ether] + CCCO
Details | excess molar enthalpy [kcal/mol]
x2 = 0.0724 | 0.108
x2 = 0.0791 | 0.115
x2 = 0.1166 | 0.148
x2 = 0.1662 | 0.177
x2 = 0.2052 | 0.195
x2 = 0.2617 | 0.21
x2 = 0.3022 | 0.218
x2 = 0.3489 | 0.222
x2 = 0.4017 | 0.222
x2 = 0.4463 | 0.219
x2 = 0.5005 | 0.211
x2 = 0.5249 | 0.207
x2 = 0.5979 | 0.188
x2 = 0.6502 | 0.172
x2 = 0.692 | 0.159
x2 = 0.6962 | 0.154
x2 = 0.7435 | 0.135
x2 = 0.7913 | 0.109
x2 = 0.8422 | 0.086
x2 = 0.8918 | 0.0614
x2 = 0.939 | 0.0344

CCCCOCCCC [dibutyl ether] + CCCCCO
Details | excess molar enthalpy [kcal/mol]
x2 = 0.0545 | 0.0841
x2 = 0.1134 | 0.139
x2 = 0.1626 | 0.169
x2 = 0.2027 | 0.186
x2 = 0.2518 | 0.199
x2 = 0.2984 | 0.206
x2 = 0.3486 | 0.212
x2 = 0.3983 | 0.211
x2 = 0.4484 | 0.209
x2 = 0.4942 | 0.201
x2 = 0.5466 | 0.193
x2 = 0.6023 | 0.178
x2 = 0.6444 | 0.167
x2 = 0.6876 | 0.145
x2 = 0.7406 | 0.127
x2 = 0.795 | 0.103
x2 = 0.8434 | 0.0803
x2 = 0.891 | 0.0562
x2 = 0.9389 | 0.0306

CCCCOCCCC [dibutyl ether] + CO
Details | excess molar enthalpy [kcal/mol]
x2 = 0.0607 | 0.0796
x2 = 0.1267 | 0.129
x2 = 0.1719 | 0.152
x2 = 0.1987 | 0.163
x2 = 0.214 | 0.168
x2 = 0.2805 | 0.183
x2 = 0.313 | 0.189
x2 = 0.3816 | 0.191
x2 = 0.3979 | 0.193
x2 = 0.462 | 0.191
x2 = 0.4968 | 0.189
x2 = 0.5453 | 0.183
x2 = 0.6012 | 0.173
x2 = 0.6454 | 0.162
x2 = 0.6968 | 0.15
x2 = 0.7455 | 0.134
x2 = 0.7992 | 0.115
x2 = 0.8467 | 0.0946
x2 = 0.8963 | 0.0722
x2 = 0.9439 | 0.0423

CCCCOCCCC [dibutyl ether] + CCCCCCCCO
Details | excess molar enthalpy [kcal/mol]
x2 = 0.0652 | 0.0925
x2 = 0.1011 | 0.125
x2 = 0.1512 | 0.157
x2 = 0.2017 | 0.178
x2 = 0.2446 | 0.19
x2 = 0.2981 | 0.198
x2 = 0.3382 | 0.202
x2 = 0.3986 | 0.203
x2 = 0.4432 | 0.2
x2 = 0.4966 | 0.193
x2 = 0.5393 | 0.186
x2 = 0.5907 | 0.17
x2 = 0.5961 | 0.168
x2 = 0.6363 | 0.158
x2 = 0.7087 | 0.132
x2 = 0.7311 | 0.125
x2 = 0.787 | 0.102
x2 = 0.83 | 0.0822
x2 = 0.879 | 0.0586
x2 = 0.9304 | 0.0332
x2 = 0.937 | 0.0299

CCCCOCCCC [dibutyl ether] + CCCCCCO
Details | excess molar enthalpy [kcal/mol]
x2 = 0.0558 | 0.0827
x2 = 0.1107 | 0.134
x2 = 0.1491 | 0.157
x2 = 0.2032 | 0.18
x2 = 0.2488 | 0.193
x2 = 0.2982 | 0.201
x2 = 0.3477 | 0.204
x2 = 0.3965 | 0.205
x2 = 0.4418 | 0.203
x2 = 0.5016 | 0.195
x2 = 0.5449 | 0.186
x2 = 0.5978 | 0.174
x2 = 0.6464 | 0.157
x2 = 0.6913 | 0.141
x2 = 0.7354 | 0.125
x2 = 0.7958 | 0.0992
x2 = 0.8479 | 0.0753
x2 = 0.888 | 0.0557
x2 = 0.9318 | 0.0325
x2 = 0.9326 | 0.0327

CCCCOCCCC [dibutyl ether] + CCCCO
Details | excess molar enthalpy
x2 = 0.0711 | 0.105 kcal/mol
x2 = 0.0787 | 0.113 kcal/mol
x2 = 0.1094 | 0.14 kcal/mol
x2 = 0.1365 | 0.158 kcal/mol
x2 = 0.1592 | 0.171 kcal/mol
x2 = 0.1825 | 0.183 kcal/mol
x2 = 0.2335 | 0.201 kcal/mol
x2 = 0.2571 | 0.206 kcal/mol
x2 = 0.2625 | 0.207 kcal/mol
x2 = 0.2632 | 0.206 kcal/mol
x2 = 0.3126 | 0.215 kcal/mol
x2 = 0.3587 | 0.217 kcal/mol
x2 = 0.3597 | 0.218 kcal/mol
x2 = 0.4155 | 0.216 kcal/mol
x2 = 0.4605 | 0.211 kcal/mol
x2 = 0.4998 | 0.206 kcal/mol
x2 = 0.5535 | 0.196 kcal/mol
x2 = 0.6027 | 0.183 kcal/mol
x2 = 0.647 | 0.17 kcal/mol
x2 = 0.6946 | 0.153 kcal/mol
x2 = 0.7472 | 0.132 kcal/mol
x2 = 0.8008 | 0.107 kcal/mol
x2 = 0.8451 | 0.0837 kcal/mol
x2 = 0.8458 | 0.0837 kcal/mol
x2 = 0.8957 | 0.0583 kcal/mol
x2 = 0.9466 | 0.0304 kcal/mol and 0.0301 kcal/mol
